According to US8481497B2, “Therapeutic agent for cancer, and method for treatment of cancer” (Sapporo Medical University, priority 2007, dated 2013):

Experiments:
Assay type in all cases: cell-based
[1] = system: FGFR1 in hepatic cancer cell line huH-7; assay: FGFR1 expression in hepatic cancer cell line by FACS; conditions: 1,000 IU/ml, 48 hours, huH-7, FACS
Protocol: 1,000 IU/ml of IFN-alpha or IFN-beta was administered to a hepatic cancer cell line huH-7. 48 hours after administration, a change of FGFR1 was examined by FACS.

[2] = system: FGFR1 in hepatic cancer cell line huH-7; assay: FGFR1 expression at protein level in hepatic cancer cell line by western blotting; conditions: 1,000 IU/ml, 48 hours, huH-7, western blotting
Protocol: 1,000 IU/ml of IFN-alpha or IFN-beta was administered to a hepatic cancer cell line huH-7. 48 hours after administration, a change of FGFR1 was examined by western blotting. From this profile, the expression level of FGFR1 at the protein level was increased by administering IFN-alpha or IFN-beta.

huH-7 cells = assay: Growth inhibition of hepatic cancer cell line (cell number and survival rate); conditions: huH-7, cultured 0 to 6 days, agent added alone
Protocol: To examine the influence of administration of IFN-beta and the anti-FGFR1 antibody on a hepatic cancer cell line, the proliferation and survival rate of a hepatic cancer cell line were examined in the presence of IFN-beta (Feron, manufactured by Toray) and the anti-FGFR1 antibody. First, 1.0×10^4. huH-7 cells were seeded to each well of a 24-well plate, then the anti-FGFR1 antibody prepared in Example 2 or an antibody-free culture supernatant as a negative control was added. Cells to which nothing was added were used as control. Then the cells were cultured for 0 to 6 days. Thereafter, the cells were detached with trypsin, and the number and survival rate of cells were measured. […] However, by adding the anti-FGFR1 antibody in addition to IFN-beta, the survival rate was about 40% lowered compared to the case anti-FGFR1 antibody was not administered.

B1: IFN-beta: IFN-beta (Feron, manufactured by Toray) (protein, UniProt P01574 22-187, looked up)
Interferon beta: MSYNLLGFLQRSSNFQCQKLLWQLNGRLEYCLKDRMNFDIPEEIKQLQQFQKEDAALTIYEMLQNIFAIFRQDSSSTGWNETIVENLLANVYHQINHLKTVLEEKLEKEDFTRGKLMSSLHLKRYYGRILHYLKAKEYSHCAWTIVRVEILRNFYFINRLTGYLRN
expression level of FGFR1 [1]: increased | expression level of FGFR1 at the protein level [2]: increased | cell growth (huH-7 cells): inhibition of the cell growth | survival rate (huH-7 cells): decrease in the survival rate
